# Values of other authors as cited in patent US5486463A, “TNF-muteins” (Hoffmann-La Roche Inc., priority 1992, dated 1996).
# Tested on: C57B16 mice
substance,measurement,value
"hTNF-α: human Tumor Necrosis Factor-alpha, 157 amino acids, SEQ ID: 2",LD50,about 500 μg/mouse
